Assay results taken from patent publication US3979508A, “Compositions and methods therewith for penicillin hypersensitivity detection” (Kremers-Urban Company, priority 1975, dated 1976).

Tested on: penicillin hypersensitivity (patients)
Test: Clinical evaluation by 26 investigators: scratch/intradermal skin tests with PPL and Penicillin G (Tables IV-VII, IX-XI)
Type: in vivo, human
Experimental: Twenty-six clinical investigators contributed a total of 1160 cases to the evaluation. Patients were tested according to a protocol as follows:
1. All patients being subjected to allergy investigation were to be tested for penicillin hypersensitivity. Two preparations were to be used. These are:
1. Penicilloyl-polylysine (PPL) prepared by the procedure set forth in Example I and as identified in Example II in a concentration of 6 × 10^-^5 M (Penicilloyl).
2. Penicillin G (Benzyl Penicillin) in a concentration of 10,000 units per cc.
For maximum safety, it was recommended that the tests first be done by the scratch technique. Intradermal tests were then to be done on those showing negative scratch tests. […]
A uniform technique was recommended for the performance of the intradermal tests. […] The reactions were to be recorded in terms of (1) the time required for the appearance of a reaction, (2) the size of erythema and (3) the size of whealing. These were to be recorded as actual measurements. Some objective measurement of dermographism was also to be recorded. […]
Table IV summarizes the skin test results on all patients, without regard to other specific factors. […] For these reasons erythema alone responses were counted with the negatives. In some instances, however, data will be presented in which erythema without wheal are counted as positive responses (figures appearing in parentheses).

With penicilloyl-poly-L-lysine [PPL] the “safety of skin testing” value was “safe”.
